Experimental findings from patent publication US10723742B2 (priority 2015, dated 2020) are described below.

The test deals with human LSD1 protein (Homo sapiens (Human), UniProt O60341).

As for `Cc1ccc(-c2ccc(C(=O)N3CC[C@H](N)C3)cc2-c2ccc(C(F)(F)F)cc2)cc1` [Comparative Example 5, (S)-(3-aminopyrrolidin-1-yl)(4-methyl-4″-(trifluoromethyl)-[1,1′:2′,1″-terphenyl]-4′-yl)methanone], the LSD1 inhibitory activity entry is given as “did not have LSD1 inhibitory activity”.
